# Source: article PMC7723054
# The other results are listed elsewhere or left out.
# T1: LIN28A (human?, UniProt Q9H9Z2 1-209)
# T1 sequence: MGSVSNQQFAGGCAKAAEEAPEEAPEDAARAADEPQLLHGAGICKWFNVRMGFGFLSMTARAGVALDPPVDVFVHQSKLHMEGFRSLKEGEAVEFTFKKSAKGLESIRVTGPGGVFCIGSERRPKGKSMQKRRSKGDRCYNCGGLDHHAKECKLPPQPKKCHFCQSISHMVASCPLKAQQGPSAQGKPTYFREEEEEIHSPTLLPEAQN
# T2: CIRBP (Homo sapiens, UniProt Q14011 1-172)
# T2 sequence: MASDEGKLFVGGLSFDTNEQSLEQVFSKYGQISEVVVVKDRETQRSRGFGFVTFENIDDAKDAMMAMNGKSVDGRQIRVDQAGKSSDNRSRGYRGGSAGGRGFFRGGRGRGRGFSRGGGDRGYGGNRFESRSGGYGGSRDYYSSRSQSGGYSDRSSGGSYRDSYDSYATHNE
# T3: DHX36 (Homo sapiens, UniProt Q9H2U1 1-1008)
# T3 sequence: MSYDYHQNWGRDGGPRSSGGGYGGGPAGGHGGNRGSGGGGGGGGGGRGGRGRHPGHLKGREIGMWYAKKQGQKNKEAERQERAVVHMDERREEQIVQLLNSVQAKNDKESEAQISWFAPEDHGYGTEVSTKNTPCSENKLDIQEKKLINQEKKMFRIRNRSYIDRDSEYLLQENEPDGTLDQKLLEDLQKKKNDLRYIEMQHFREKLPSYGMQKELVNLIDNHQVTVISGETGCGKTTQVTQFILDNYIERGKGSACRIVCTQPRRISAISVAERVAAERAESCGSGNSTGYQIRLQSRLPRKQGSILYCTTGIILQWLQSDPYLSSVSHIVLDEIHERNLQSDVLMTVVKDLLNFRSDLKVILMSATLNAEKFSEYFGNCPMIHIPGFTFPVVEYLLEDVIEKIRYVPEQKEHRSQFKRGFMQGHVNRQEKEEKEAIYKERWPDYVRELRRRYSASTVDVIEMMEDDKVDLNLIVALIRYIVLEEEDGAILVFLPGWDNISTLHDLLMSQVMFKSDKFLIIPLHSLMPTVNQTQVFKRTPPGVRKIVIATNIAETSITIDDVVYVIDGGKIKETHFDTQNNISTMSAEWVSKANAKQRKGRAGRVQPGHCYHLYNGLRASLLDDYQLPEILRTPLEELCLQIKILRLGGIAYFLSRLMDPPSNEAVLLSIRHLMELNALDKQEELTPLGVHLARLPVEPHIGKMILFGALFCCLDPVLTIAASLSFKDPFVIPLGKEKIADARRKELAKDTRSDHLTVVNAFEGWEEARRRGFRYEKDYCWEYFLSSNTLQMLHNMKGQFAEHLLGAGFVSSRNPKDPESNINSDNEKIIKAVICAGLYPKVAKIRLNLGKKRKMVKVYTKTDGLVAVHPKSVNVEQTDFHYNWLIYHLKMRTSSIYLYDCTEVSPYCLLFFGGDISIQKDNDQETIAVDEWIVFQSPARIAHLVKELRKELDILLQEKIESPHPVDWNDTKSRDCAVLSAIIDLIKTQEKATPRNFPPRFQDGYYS
# B1: hsa-mir-4468 (structured_RNA)
# RNA: GGGCAGGCGACAGUUAGGGACUUGUUCAGGUGUACGAAGUUUCAGCCUUUGGUGGCUAUGGUUGACUGGGCCACUCAGAGGCUGAAGCUUCGUGCAC
# B2: hsa-mir-320e (structured_RNA)
# RNA: GGGAACGCUAUAGGACUGAUUGAACAGAGGUGUACGAAGUUUCAGCUUCUUCCUGGAGUCGGGGAAAAGGCUGAAGCUUCGUGCAC
# B3: hsa-mir-4443 (structured_RNA)
# RNA: GGGAGAAAAUAUCGGGGACCAGAGACUCGGUGUACGAAGUUUCAGCUUUUAGAAGCUGAAGCUUCGUGCAC
# B4: hsa-mir-4419a (structured_RNA)
# RNA: GGGAUACAAGCGUUUGACGUGUCAGUCUGGUGUACGAAGUUUCAGCCUCGGGAGGCUGAGGCUGAAGCUUCGUGCAC
# B5: hsa-mir-1249 (structured_RNA)
# RNA: GGGACGUCAUCCUCGCGCCUUACAGAGUGGUGUACGAAGUUUCAGCAAGUUCCCUCUGGCUGGAACGCUGAAGCUUCGUGCAC
# B6: NEAT1_ParasoR_ID5 (structured_RNA)
# RNA: GGGAAGGGCAGCUGGACCUACCCAAUUAGGUGUACGAAGUUUCAGCGGAACUGCCAAACUAUUUUCCGCUGAAGCUUCGUGCAC
# B7: hsa-mir-8062 (structured_RNA)
# RNA: GGGACCAAGUCUGAUACCCCUGCUCCACGGUGUACGAAGUUUCAGCUUGCUCACGGUAAGAAAAACAUGAGUAAGCUGAAGCUUCGUGCAC
# B8: hsa-mir-1253 (structured_RNA)
# RNA: GGGAACGGGUAAGUAGGUAUCACACCACGGUGUACGAAGUUUCAGCUGCAGAUGUGGACUGCUAAAUGCAGCUGAAGCUUCGUGCAC
# B9: hsa-mir-369 (structured_RNA)
# RNA: GGGAAGCACGACUAGGAUUUUCUACACGGGUGUACGAAGUUUCAGCUAUUCGCUUUAUUGACUUCGAAUAGCUGAAGCUUCGUGCAC
# B10: hsa-mir-8053 (structured_RNA)
# RNA: GGGAAAGAAUCCUGGUUUAGCCGCCUCAGGUGUACGAAGUUUCAGCGGCAGAAAUGUCGCUGAAGCUUCGUGCAC
# B11: hsa-mir-3153 (structured_RNA)
# RNA: GGGAAACUGCGUGUUAUGAUGUUCUGGCGGUGUACGAAGUUUCAGCCCCCCAAUUAAAGUAGAUUGGGGGGCUGAAGCUUCGUGCAC
# B12: hsa-mir-513b (structured_RNA)
# RNA: GGGAAGGGGAAUGUCAUAACUGUAAACGGGUGUACGAAGUUUCAGCAUUUAUGUGAACUAAAAUAUAAAUGCUGAAGCUUCGUGCAC
# B13: hsa-mir-6862-2_6862-1 (structured_RNA)
# RNA: GGGAAAAGUGGGUGCAACACUCUGGUUAGGUGUACGAAGUUUCAGCGAGACUUUGUGAUUUGUCUCCAAAGCCUCGCUGAAGCUUCGUGCAC
# B14: hsa-mir-340 (structured_RNA)
# RNA: GGGAAAUAGCUGCGACGGCGCAUCCUAUGGUGUACGAAGUUUCAGCCUGAUUGUCAUAUGUCGUUUGUGGGAUCCGGCUGAAGCUUCGUGCAC
# B15: hsa-mir-3692 (structured_RNA)
# RNA: GGGAAUGGCAGUUUACUAACGGAGGACGGGUGUACGAAGUUUCAGCAUACUGGAGCAAUAGAUACAGUUGCUGAAGCUUCGUGCAC
# B16: hsa-mir-5585 (structured_RNA)
# RNA: GGGACAGCACGCAAGGUCUCGACAAAGAGGUGUACGAAGUUUCAGCUCGAGAGGUCAGAGGAUUGCUCCUGAGCUGAAGCUUCGUGCAC
# B17: hsa-mir-3681 (structured_RNA)
# RNA: GGGACCUAGAAAGGCAGCGCCAGAUAAAGGUGUACGAAGUUUCAGCCUGUGCAGGGCCAACUGUGCACACGCUGAAGCUUCGUGCAC
# B18: hsa-mir-1470 (structured_RNA)
# RNA: GGGACUGUGGUUAACGCCUGACCCCUAGGGUGUACGAAGUUUCAGCCCGGGGCAGGAGACCCCGCGGCUGAAGCUUCGUGCAC
# B19: hsa-mir-378j (structured_RNA)
# RNA: GGGAGAUGCGGAUACGGCGUAAGAAUUCGGUGUACGAAGUUUCAGCAGAAGAACUGCUGAAGCUUCGUGCAC
# B20: hsa-mir-4510 (structured_RNA)
# RNA: GGGAAUCCAGCGUCUGUGUCACGGGAAAGGUGUACGAAGUUUCAGCGGUUGUUAGAUAGACAACUGCUGAAGCUUCGUGCAC
# B21: hsa-mir-548f-2 (structured_RNA)
# RNA: GGGAGCCUUUCUGCUCAUAAUUCCCCGGGGUGUACGAAGUUUCAGCUUUUAUCAUUACUUUUAAUGGCAAAAGCUGAAGCUUCGUGCAC
# B22: hsa-mir-4301 (structured_RNA)
# RNA: GGGAAACCCACGUUCUGCCCAAUACUAUGGUGUACGAAGUUUCAGCGUGAACAUUGCAUGCUGAAGCUUCGUGCAC
# B23: hsa-mir-891b (structured_RNA)
# RNA: GGGCCUUAACAUGGAACCAAGGGUGCCAGGUGUACGAAGUUUCAGCUUGAUUCAGUAAAACAUUCAAGCUGAAGCUUCGUGCAC
# B24: hsa-mir-3915 (structured_RNA)
# RNA: GGGACAGAAUGUACUGGCCAUGCAGUGGGGUGUACGAAGUUUCAGCUAUUGCAAAGAUUUUCAAUAGCUGAAGCUUCGUGCAC
# B25: hsa-mir-3202-2 (structured_RNA)
# RNA: GGGAAACCGCGAGACACGGCGUAUCAUAGGUGUACGAAGUUUCAGCUAAUGCUCUGAAAAUGACUCCAAUCAUUAGCUGAAGCUUCGUGCAC
# B26: hsa-mir-4491 (structured_RNA)
# RNA: GGGAGAAACCCAUGUUAGGACCCGCCUAGGUGUACGAAGUUUCAGCCAUUAACGUGGACCAGACAAUAUUAAUGGCUGAAGCUUCGUGCAC
# Molecular target: T1, LIN28A
# Test: FOREST: bead pull-down of RNA structure library v1, barcode microarray; U1A/LIN28A: 20 mM HEPES pH 7.5, 80 mM KCl, 20 mM NaCl, 10% glycerol, 2 mM DTT, 0.1 ug/uL BSA, 4 C; BG4/CIRBP/DHX36: 10 mM Tris-HCl pH 7.5, 100 mM KCl (or LiCl),; high values mean tight binding
row,Binder,binding signal [z-score]
1,B1,-0.0692
2,B2,-0.0647
3,B3,-0.0901
4,B4,-0.0873
5,B5,-0.083
6,B6,-0.11
7,B7,-0.086
8,B8,-0.0551
9,B9,-0.097
10,B10,-0.103
11,B11,-0.0885
12,B12,-0.0955
13,B13,-0.0635
14,B14,-0.0566
15,B15,-0.0553
16,B16,-0.0545
17,B17,-0.091
18,B18,-0.109
19,B19,-0.0862
20,B20,-0.11
21,B21,-0.0762
22,B22,-0.0884
23,B23,-0.0565
24,B24,-0.0997
25,B25,-0.101
26,B26,-0.0863

# Molecular target: T2, CIRBP
# Test: as above
row,Binder,binding signal [z-score]
1,B1,-1.58
2,B2,1.74
3,B3,0.312
4,B4,0.126
5,B5,0.306
6,B6,0.403
7,B7,0.954
8,B8,0.174
9,B9,-0.933
10,B10,0.971
11,B11,-0.218
12,B12,-0.548
13,B13,0.44
14,B14,0.348
15,B15,0.268
16,B16,-0.104
17,B17,1.25
18,B18,0.973
19,B19,-0.149
20,B20,-0.39
21,B21,0.199
22,B22,0.213
23,B23,-0.906
24,B24,-0.518
25,B25,-0.507
26,B26,0.374

# Molecular target: T3, DHX36
# Test: as above
row,Binder,binding signal [z-score]
1,B1,-0.158
2,B2,0.373
3,B3,-0.794
4,B4,-0.34
5,B5,-0.666
6,B6,-0.0134
7,B7,-0.0682
8,B8,0.0774
9,B9,-0.622
10,B10,-0.422
11,B11,0.596
12,B12,-0.321
13,B13,-0.996
14,B14,-0.247
15,B15,-1.3
16,B16,-0.0916
17,B17,0.178
18,B18,-0.105
19,B19,-1.3
20,B20,-0.621
21,B21,0.645
22,B22,-1.21
23,B23,0.108
24,B24,0.88
25,B25,-1.19
26,B26,0.0951
